Measured values taken from publication PMC4510350 (PLoS Neglected Tropical Diseases, 2015).

Experiments:
[1] = at the antimicrobial concentrations used; cited from earlier work
B. thailandensis (E264) = conditions: 3 h, pH 7.4

## CC[C@H](C)[C@H](NC(=O)[C@@H](NC(=O)[C@H](CCCCN)NC(=O)[C@@H]1CCCN1C(=O)[C@H](CCCCN)NC(=O)[C@H](CCCCN)NC(=O)[C@H](Cc1ccccc1)NC(=O)[C@H](Cc1ccccc1)NC(=O)[C@H](CCCCN)NC(=O)[C@H](CCCCN)NC(=O)[C@H](C)NC(=O)[C@H](CCCNC(=N)N)NC(=O)[C@H](CCCCN)NC(=O)[C@H](CCCCN)NC(=O)[C@@H](NC(=O)[C@H](CO)NC(=O)[C@H](CC(N)=O)NC(=O)[C@H](CCCCN)NC(=O)[C@H](CC(C)C)NC(=O)[C@H](CCCCN)NC(=O)[C@H](CCCCN)NC(=O)[C@H](Cc1ccccc1)NC(=O)[C@H](Cc1ccccc1)NC(=O)[C@H](CCCCN)NC(=O)[C@H](CCCCN)NC(=O)[C@H](Cc1ccccc1)NC(=O)[C@H](CCCNC(=N)N)NC(=O)[C@@H](N)CCCCN)C(C)C)C(C)C)C(=O)NCC(=O)N[C@H](C(=O)N[C@H](C(=O)N[C@@H](Cc1ccccc1)C(=O)N1CCC[C@H]1C(=O)N[C@@H](Cc1ccccc1)C(=O)O)[C@@H](C)O)C(C)C [NA-CATH]
[1]
  hemolysis: no hemolysis
B. thailandensis (E264)
  EC50: 877 nM
